Experimental data reported in BindingDB's records for doi:10.1002/(SICI)1098-2396(200002)35:2<79::AID-SYN1>3.0.CO;2-X (Institut De Recherches Servier, 2000).

By UniProt entry, the sequences of proteins in these tests, tags left out. Where a name states a change or a piece, a line headed by the entry shows the natural chain unless it says otherwise.
UniProt P28222, whole entry: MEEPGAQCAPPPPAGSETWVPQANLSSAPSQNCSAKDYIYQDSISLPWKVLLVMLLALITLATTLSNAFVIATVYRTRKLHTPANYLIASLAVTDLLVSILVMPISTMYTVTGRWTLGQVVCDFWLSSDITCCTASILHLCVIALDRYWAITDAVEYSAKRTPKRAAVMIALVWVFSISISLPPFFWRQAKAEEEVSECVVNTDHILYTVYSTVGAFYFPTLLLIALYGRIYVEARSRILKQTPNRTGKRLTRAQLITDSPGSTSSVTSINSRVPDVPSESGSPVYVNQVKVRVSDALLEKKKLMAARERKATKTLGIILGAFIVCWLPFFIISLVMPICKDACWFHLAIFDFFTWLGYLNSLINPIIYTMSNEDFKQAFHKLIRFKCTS
UniProt P28335: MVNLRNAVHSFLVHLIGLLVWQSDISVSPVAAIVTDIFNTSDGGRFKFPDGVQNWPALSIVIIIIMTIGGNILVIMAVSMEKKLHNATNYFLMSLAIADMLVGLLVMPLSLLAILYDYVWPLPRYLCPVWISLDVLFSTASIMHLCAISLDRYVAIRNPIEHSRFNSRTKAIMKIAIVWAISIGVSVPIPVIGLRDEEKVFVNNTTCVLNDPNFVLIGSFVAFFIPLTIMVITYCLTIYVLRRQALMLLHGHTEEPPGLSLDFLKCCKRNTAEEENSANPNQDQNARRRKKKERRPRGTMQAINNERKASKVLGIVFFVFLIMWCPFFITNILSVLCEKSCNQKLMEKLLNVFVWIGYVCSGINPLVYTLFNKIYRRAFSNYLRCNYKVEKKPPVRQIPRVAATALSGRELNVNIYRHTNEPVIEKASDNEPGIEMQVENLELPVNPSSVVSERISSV

Tests used:
[1] = molecular target: T1, 5-hydroxytryptamine receptor 1B (Homo sapiens, UniProt P28222)
[2] = molecular target: T1, 5-hydroxytryptamine receptor 1B; remark: listed apart in the source
[3] = molecular target: 5-hydroxytryptamine receptor 2C (Homo sapiens, UniProt P28335)

Question: For `COC(=O)[C@@H]1[C@H]2C[C@H]3c4[nH]c5ccccc5c4CCN3C[C@@H]2CC[C@@H]1O` [yohimbic acid methyl ester], which Ki [1] is on record?
Answer: 158 nM

Question: What about the Ki [2] of the same compound?
Answer: 158 nM

Question: What about the Ki [3] of the same compound?
Answer: 1000 nM
